In assay [1] the target is T1, cAMP-specific 3',5'-cyclic phosphodiesterase 4B [316-320,321-700,S319G,N320S,N321H,T322M] (Homo sapiens, UniProt Q07343, S319G/N320S/N321H/T322M).
T1 construct: 316-320,321-700
As to the kind of experiment: Phosphodiesterase (PDE) Inhibition Assay.

Assay [2] deals with cAMP-specific 3',5'-cyclic phosphodiesterase 4D [372-376,381-715,S375G,I381V,S383G,G384S,V385H,K386M) (Homo sapiens, UniProt Q08499, S375G/I381V/S383G/G384S/V385H/K386M). As to the kind of experiment: Phosphodiesterase (PDE) Inhibition Assay.

In general, IC50 refers to the concentration that gives 50% inhibition. Low values mean greater potency, high ones weaker potency. As for `CN1CC(=O)N2[C@H](c3ccc4c(c3)OCO4)c3[nH]c4ccccc4c3C[C@@H]2C1=O`, the concentration for half-maximal inhibition (IC50) in assay [1] turned out to be 9.2 µM; in assay [2], 19 µM.

The values are drawn from BindingDB's records for doi:10.1016/j.str.2004.10.004 (Plexxikon, 2004).
